In paper PMC10390045:

Legend:
[1] = immunofluorescence, confocal microscopy; details: glycan lost; control: DNMT1-WT, low glucose
[2] = EpiQuik DNMT activity ELISA on immunoprecipitated Myc-DNMT1; details: glycan lost; control: Myc-DNMT1-WT under high glucose/TMG

B1: DNMT1: S878A (protein)
parent chain: MPARTAPARVPTLAVPAISLPDDVRRRLKDLERDSLTEKECVKEKLNLLHEFLQTEIKNQLCDLETKLRKEELSEEGYLAKVKSLLNKDLSLENGAHAYNREVNGRLENGNQARSEARRVGMADANSPPKPLSKPRTPRRSKSDGEAKPEPSPSPRITRKSTRQTTITSHFAKGPAKRKPQEESERAKSDESIKEEDKDQDEKRRRVTSRERVARPLPAEEPERAKSGTRTEKEEERDEKEEKRLRSQTKEPTPKQKLKEEPDREARAGVQADEDEDGDEKDEKKHRSQPKDLAAKRRPEEKEPEKVNPQISDEKDEDEKEEKRRKTTPKEPTEKKMARAKTVMNSKTHPPKCIQCGQYLDDPDLKYGQHPPDAVDEPQMLTNEKLSIFDANESGFESYEALPQHKLTCFSVYCKHGHLCPIDTGLIEKNIELFFSGSAKPIYDDDPSLEGGVNGKNLGPINEWWITGFDGGEKALIGFSTSFAEYILMDPSPEYAPIFGLMQEKIYISKIVVEFLQSNSDSTYEDLINKIETTVPPSGLNLNRFTEDSLLRHAQFVVEQVESYDEAGDSDEQPIFLTPCMRDLIKLAGVTLGQRRAQARRQTIRHSTREKDRGPTKATTTKLVYQIFDTFFAEQIEKDDREDKENAFKRRRCGVCEVCQQPECGKCKACKDMVKFGGSGRSKQACQERRCPNMAMKEADDDEEVDDNIPEMPSPKKMHQGKKKKQNKNRISWVGEAVKTDGKKSYYKKVCIDAETLEVGDCVSVIPDDSSKPLYLARVTALWEDSSNGQMFHAHWFCAGTDTVLGATSDPLELFLVDECEDMQLSYIHSKVKVIYKAPSENWAMEGGMDPESLLEGDDGKTYFYQLWYDQDYARFESPPKTQPTEDNKFKFCVSCARLAEMRQKEIPRVLEQLEDLDSRVLYYSATKNGILYRVGDGVYLPPEAFTFNIKLSSPVKRPRKEPVDEDLYPEHYRKYSDYIKGSNLDAPEPYRIGRIKEIFCPKKSNGRPNETDIKIRVNKFYRPENTHKSTPASYHADINLLYWSDEEAVVDFKAVQGRCTVEYGEDLPECVQVYSMGGPNRFYFLEAYNAKSKSFEDPPNHARSPGNKGKGKGKGKGKPKSQACEPSEPEIEIKLPKLRTLDVFSGCGGLSEGFHQAGISDTLWAIEMWDPAAQAFRLNNPGSTVFTEDCNILLKLVMAGETTNSRGQRLPQKGDVEMLCGGPPCQGFSGMNRFNSRTYSKFKNSLVVSFLSYCDYYRPRFFLLENVRNFVSFKRSMVLKLTLRCLVRMGYQCTFGVLQAGQYGVAQTRRRAIILAAAPGEKLPLFPEPLHVFAPRACQLSVVVDDKKFVSNITRLSSGPFRTITVRDTMSDLPEVRNGASALEISYNGEPQSWFQRQLRGAQYQPILRDHICKDMSALVAARMRHIPLAPGSDWRDLPNIEVRLSDGTMARKLRYTHHDRKNGRSSSGALRGVCSCVEAGKACDPAARQFNTLIPWCLPHTGNRHNHWAGLYGRLEWDGFFSTTVTNPEPMGKQGRVLHPEQHRVVSVRECARSQGFPDTYRLFGNILDKHRQVGNAVPPPLAKAIGLEIKLCMLAKARESASAKIKEEEAAKD
localisation_or_trafficking [1]: no change
enzymatic_activity [2]: increases
